pKd: −log10 of the molar value.
Tests used:
[1] = target: HER3 ECD (Homo sapiens, UniProt P21860); conditions: read-out: affinity; peptide ELISA with increasing concentrations, biotin-conjugated peptide, sigmoidal fit
Description: The purity and molecular weight were determined by high performance liquid chromatography and mass spectrometry. […] Following blocking with 1% non-fat dry milk, increasing concentrations of peptide were incubated with target protein for 1 h at 37° C. Wells were washed with 0.1% TBST, and bound peptide detected by addition of HRP-conjugated streptavidin (Abeam, Cambridge, UK), washing and ABTS substrate incubation for 10 minutes. Absorbance at 405 nm was read by spectrophotometer. […] Plates were washed and bound peptide once again detected by addition of streptavidin-HRP and ABTS and absorbance read at 405 nm.

Amino acid sequences for entries named in this document (tags omitted). Residues count along the entry.
UniProt P21860, 20-643 limits assumed: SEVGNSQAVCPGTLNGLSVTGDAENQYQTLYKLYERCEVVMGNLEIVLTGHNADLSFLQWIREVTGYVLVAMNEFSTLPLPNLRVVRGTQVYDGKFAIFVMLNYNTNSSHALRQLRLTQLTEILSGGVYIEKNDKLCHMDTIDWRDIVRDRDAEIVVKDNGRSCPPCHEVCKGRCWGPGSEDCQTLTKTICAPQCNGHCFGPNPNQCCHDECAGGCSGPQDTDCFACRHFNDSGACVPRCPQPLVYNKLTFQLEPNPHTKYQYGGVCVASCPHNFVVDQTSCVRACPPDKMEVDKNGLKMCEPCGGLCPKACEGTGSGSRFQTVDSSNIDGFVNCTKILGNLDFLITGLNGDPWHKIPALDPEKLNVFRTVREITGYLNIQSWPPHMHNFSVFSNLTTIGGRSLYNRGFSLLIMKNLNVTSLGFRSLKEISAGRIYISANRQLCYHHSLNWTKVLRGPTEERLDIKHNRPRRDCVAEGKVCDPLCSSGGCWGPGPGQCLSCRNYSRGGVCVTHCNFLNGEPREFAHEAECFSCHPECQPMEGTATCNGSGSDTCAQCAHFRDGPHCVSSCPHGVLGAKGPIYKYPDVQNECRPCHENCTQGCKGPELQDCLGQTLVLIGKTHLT

[2] = tested on: 22RV1 (high HER3 expressing prostate cancer) tumors; design: species or system Nu/nu mice; conditions: mouse, in vivo
Description: (§1) The peptide was radio labeled with the radiometal ^68Ga eluted from a ^68Ge/^68Ga generator (iThemba, South Africa) in 0.05M HCl. The pH of the elution was adjusted to approximately 4 by 2M=2-[4-(2-hydroxyethyl) piperazin-1-yl]ethanesulfonic acid and 100 ng of peptide reacted with the elution for 10 min at room temperature. Peptide was purified from free ^68Ga by reverse phase C18 cartridge (Waters, Milford, MA) and purity determined by ITLC. The peptide was then prepared in normal saline to a specific activity of approximately 300 MBq/mg for injection into mice. Nu/nu mice bearing either 22RV1 (high HER3 expressing prostate cancer) or HCC-1954 (low HER3 expressing breast cancer) tumors were implanted in the right upper flank of mice and grown to approximately 5-7 mm. Radiolabeled HER3 peptide was injected intravenously and allowed to circulate for 1 h prior to PET imaging. PET images were acquired on an Inveon micro PET/CT (Siemens, Knoxville, TN) for 15 minutes in list mode, followed by CT acquisition. Images were constructed using 3D-MLEM (20 subsets) and corrected for scatter and randoms. The tumor and blood uptake was calculated in a 3D region of interest drawn around the tumor and heart, respectively, using CT guidance. Images were post-processed using VivoQuant (InviCRO, Boston, MA).

[3] = tested on: HCC-1954 (low HER3 expressing breast cancer) tumors; design: species or system Nu/nu mice; conditions: mouse, in vivo
Description: as §1

- pKd [1]: 6.57
Substance: C-L-P-T-K-F-R-S-C [HER3P1]
- tumor to background ratios [2]: 1.59-3.32
- tumor to background ratios [3]: 0.84-0.93
